Data from ChEMBL document CHEMBL5257125, “Discovery of pyrido[4,3-d]pyrimidinone derivatives as novel Wee1 inhibitors” (Bioorg Med Chem, 2023).

Columns and labels:
Homo sapiens [1] = species: Homo sapiens; assay: Selectivity ratio of IC50 for PLK1 (unknown origin) to IC50 for human Wee1
Homo sapiens [2] = species: Homo sapiens; assay: Selectivity ratio of IC50 for JAK1 (unknown origin) to IC50 for human Wee1
Homo sapiens [3] = species: Homo sapiens; assay: Selectivity ratio of IC50 for CSK (unknown origin) to IC50 for human Wee1

Measured: Ratio IC50

CC(=O)Nc1cc(Nc2cc3ncn(-c4c(Cl)cccc4Cl)c(=O)c3cn2)ccc1N1C[C@@H](C)N[C@@H](C)C1
500: all assays above
